# Antibody variant affinities, Ab-95 light chain, assay 2

Data: MIT Lincoln Laboratory AlphaSeq set, Engelhart et al. 2022, doi:10.1038/s41597-022-01779-4, as distributed in FLAb.

The target is the same throughout: PDVDLGDISGINAS, from the HR2 region of SARS-CoV-2 spike.

Parent: Ab-95, a human scFv built as VH, a (GGGGS)3 linker, VL. Only the CDRs of the light chain vary.
VH: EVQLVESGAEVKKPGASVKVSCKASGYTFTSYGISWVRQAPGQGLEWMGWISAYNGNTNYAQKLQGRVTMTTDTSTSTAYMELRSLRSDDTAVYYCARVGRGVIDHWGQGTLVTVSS
VL: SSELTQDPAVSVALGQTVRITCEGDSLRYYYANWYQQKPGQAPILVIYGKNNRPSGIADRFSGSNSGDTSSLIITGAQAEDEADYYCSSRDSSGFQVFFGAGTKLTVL

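The starting antibody came from a phage panning campaign against this peptide. Variants in AAYL52 differ from the parent at up to three CDR positions; double and triple changes were sampled at random. The scFvs were displayed on barcoded MATa yeast, the peptide on MATalpha yeast. Binding brings cells together so that they mate, and sequencing counts the barcode pairs among the diploids. Each replicate has its own calibration line, from reference interactions of the BCL2 family. There are three technical replicates.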

Positions count from residue 1 of the parent VL; E23L puts L in place of E. Affinities are written as log10 Kd with Kd in nM; a lower number is a better binder. A pair that was not seen in that replicate is written "n.d."; this usually means weak binding, but a binder can also be missed.

{"changes": "E23L+N51L+S92L", "log10 Kd, replicates": "3.76 / 3.50 / 3.69", "empty controls": "1 of 9 (2.90)"}
{"changes": "G24A+R28D+F98G", "log10 Kd, replicates": "3.18 / 3.73 / n.d.", "empty controls": "0 of 9"}
{"changes": "S26V+R28V+S89V", "log10 Kd, replicates": "n.d. / n.d. / n.d.", "empty controls": "3 of 9 (4.00)"}
{"changes": "A32T+G49M", "log10 Kd, replicates": "4.11 / n.d. / n.d.", "empty controls": "2 of 9 (2.96)"}
{"changes": "N51H+N52C+G94I", "log10 Kd, replicates": "3.95 / n.d. / n.d.", "empty controls": "4 of 9 (3.93)"}
{"changes": "L27Q+A32M+R90N", "log10 Kd, replicates": "n.d. / n.d. / n.d.", "empty controls": "1 of 9 (4.13)"}
{"changes": "G24T+G49F+D91W", "log10 Kd, replicates": "5.59 / 5.19 / 3.74", "empty controls": "2 of 9 (4.64)"}
{"changes": "G49I+R90D+D91T", "log10 Kd, replicates": "n.d. / n.d. / 4.35", "empty controls": "3 of 9 (4.65)"}
{"changes": "G49A+N51L", "log10 Kd, replicates": "n.d. / n.d. / 4.37", "empty controls": "2 of 9 (3.74)"}
{"changes": "K50T+D91Q+G94S", "log10 Kd, replicates": "n.d. / n.d. / n.d.", "empty controls": "0 of 9"}
{"changes": "E23W+N52A+G94T", "log10 Kd, replicates": "2.78 / 2.62 / 2.95", "empty controls": "3 of 9 (3.86)"}
{"changes": "R28I+Q96N+V97K", "log10 Kd, replicates": "n.d. / 5.02 / 4.10", "empty controls": "2 of 9 (4.43)"}
{"changes": "E23V+R28M+Y30E", "log10 Kd, replicates": "0.99 / 1.01 / 0.32", "empty controls": "2 of 9 (4.19)"}
{"changes": "Y29R+Y30M+S89M", "log10 Kd, replicates": "2.64 / 2.43 / 3.14", "empty controls": "4 of 9 (4.30)"}
{"changes": "Y30C+G49N+S92I", "log10 Kd, replicates": "3.31 / 3.66 / n.d.", "empty controls": "0 of 9"}
{"changes": "E23T+Y31L+S92T", "log10 Kd, replicates": "1.89 / 1.74 / 1.53", "empty controls": "4 of 9 (3.95)"}
{"changes": "E23K+G94C+F95D", "log10 Kd, replicates": "n.d. / n.d. / 3.02", "empty controls": "2 of 9 (3.78)"}
{"changes": "R53T+P54A+F98C", "log10 Kd, replicates": "3.81 / 4.09 / 3.49", "empty controls": "2 of 9 (4.40)"}
{"changes": "E23M+R90H+V97D", "log10 Kd, replicates": "4.23 / n.d. / n.d.", "empty controls": "0 of 9"}
{"changes": "N51S+S93L", "log10 Kd, replicates": "3.47 / 2.95 / 3.30", "empty controls": "7 of 9 (3.77)"}
{"changes": "F95L+V97E+F98H", "log10 Kd, replicates": "2.75 / 2.51 / 1.32", "empty controls": "0 of 9"}
{"changes": "N52E+S89D+S92L", "log10 Kd, replicates": "2.46 / 3.01 / 2.95", "empty controls": "4 of 9 (3.83)"}
{"changes": "G24V+Y30T+Y31P", "log10 Kd, replicates": "2.12 / 1.55 / 2.01", "empty controls": "3 of 9 (3.69)"}
{"changes": "Y31F+S92A+S93P", "log10 Kd, replicates": "2.56 / 2.59 / 3.13", "empty controls": "1 of 9 (4.05)"}
{"changes": "D25P+N51Q+S89M", "log10 Kd, replicates": "3.89 / 3.42 / 3.45", "empty controls": "3 of 9 (4.02)"}
{"changes": "K50S+N52L+D91L", "log10 Kd, replicates": "3.96 / 3.32 / n.d.", "empty controls": "3 of 9 (3.67)"}

The opening 3 entries, copied out:

{"changes": "E23L+N51L+S92L", "log10 Kd, replicates": "3.76 / 3.50 / 3.69", "empty controls": "1 of 9 (2.90)"}
{"changes": "G24A+R28D+F98G", "log10 Kd, replicates": "3.18 / 3.73 / n.d.", "empty controls": "0 of 9"}
{"changes": "S26V+R28V+S89V", "log10 Kd, replicates": "n.d. / n.d. / n.d.", "empty controls": "3 of 9 (4.00)"}

Nonspecific signal, from three strains lacking the peptide, appeared in 28% of pairings of library AAYL52, centred on 3.91 (5% of these signals below 2.90); values are not corrected for it. The control count says in how many pairings with the empty strains this scFv gave a signal, with their mean in brackets.